Test results published in paper PMC9027920, “Development of New Thiophene-Containing Triaryl Pyrazoline Derivatives as PI3Kγ Inhibitors” (Molecules, 2022).

Sequences of proteins named here, by UniProt entry; tags and fusion partners are left off.
UniProt P48736, whole entry, species assumed: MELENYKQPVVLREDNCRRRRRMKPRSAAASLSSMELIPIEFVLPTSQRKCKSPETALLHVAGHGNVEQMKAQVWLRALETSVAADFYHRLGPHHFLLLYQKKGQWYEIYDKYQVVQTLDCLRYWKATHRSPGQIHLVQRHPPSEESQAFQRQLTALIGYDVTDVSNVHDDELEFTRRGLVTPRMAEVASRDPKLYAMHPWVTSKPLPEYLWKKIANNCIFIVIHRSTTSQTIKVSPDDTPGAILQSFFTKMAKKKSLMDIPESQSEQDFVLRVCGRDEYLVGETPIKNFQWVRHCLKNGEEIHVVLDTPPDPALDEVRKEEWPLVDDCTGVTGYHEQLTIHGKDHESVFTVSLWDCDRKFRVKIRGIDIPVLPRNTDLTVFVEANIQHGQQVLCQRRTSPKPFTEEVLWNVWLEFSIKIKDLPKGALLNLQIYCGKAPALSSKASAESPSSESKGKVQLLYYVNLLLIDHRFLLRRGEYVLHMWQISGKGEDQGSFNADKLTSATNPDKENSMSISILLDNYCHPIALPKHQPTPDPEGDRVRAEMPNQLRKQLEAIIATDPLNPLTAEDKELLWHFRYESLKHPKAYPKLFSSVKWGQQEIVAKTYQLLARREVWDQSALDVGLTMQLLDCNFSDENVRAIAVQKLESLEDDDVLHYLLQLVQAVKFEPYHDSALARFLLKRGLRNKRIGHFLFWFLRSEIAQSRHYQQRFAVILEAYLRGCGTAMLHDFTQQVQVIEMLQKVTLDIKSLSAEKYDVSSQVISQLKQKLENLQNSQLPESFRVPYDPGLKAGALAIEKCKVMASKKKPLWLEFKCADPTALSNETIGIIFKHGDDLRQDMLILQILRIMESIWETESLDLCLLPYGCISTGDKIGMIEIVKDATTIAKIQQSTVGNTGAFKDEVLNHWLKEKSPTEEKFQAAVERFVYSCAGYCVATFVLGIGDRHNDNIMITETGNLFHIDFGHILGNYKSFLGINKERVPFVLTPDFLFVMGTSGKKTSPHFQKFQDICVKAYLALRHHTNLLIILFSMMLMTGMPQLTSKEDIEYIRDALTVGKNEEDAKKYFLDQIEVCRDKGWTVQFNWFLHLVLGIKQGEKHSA

Target: T1, PI3Kγ (Homo sapiens, UniProt P48736)
T1 construct: purchased Perkin–Elmer
Test: competitive fluorescence polarization kinase activity assay, PI3Kγ
Format: biochemical
Conditions: fluorescence polarization kinase kit
Description: Initially, we directly tested the inhibition potency of the synthesized compounds on PI3K by using competitive fluorescence polarization kinase kits, as mentioned in previous investigations. According to the significance and research maturity of the isoforms as referenced, the PI3Kα and PI3Kγ isoforms were preliminarily included here. The origin ligand of the protein crystal complex LY294002 was selected as the positive control. General speaking, the majority of the tested compounds indicated potent PI3K inhibitory potency, which set the basis for discussing the structure–activity relationship (SAR).
The competitive fluorescence polarization kinase activity assay was used to test the inhibition potency on PI3K, as mentioned in previous investigations. In general, following the instruction of the Kit (Perkin–Elmer, Waltham, MA, USA), the 10 μL scale of PI3K activity reaction was conducted with the substrate diC8-PI(4,5)P2 in a solution containing 2.5 mM MgCl2, 5 mM HEPES, […] and 10 mM DTT at pH 7.0. Into the 10 μL reaction wells with 50 ng enzyme and […], different concentrations of the tested compounds were added, respectively. […] With appropriate filters, the polarization values of the corresponding dye were recorded to calculate the enzymatic activity of PI3K in this reacting procedure. […]

Q: O=c1cc(N2CCOCC2)oc2c(-c3ccccc3)cccc12 [LY294002, reference compound] was tested. Which IC50 did it give?
A: The IC50 was 777 ± 71 nM.
